Experimental data: patent US10272144B2, “Compositions for and methods of treating and preventing targeting tumor associated carbohydrate antigens” (Board of Trustees of the University of Arkansas, priority 2013, dated 2019)

How the values were obtained:
[1] = test system: cancer cells (HCC1954 and MDA-MB-231); experiment: Immunized plasma toxicity on cancer cells (both cell lines); format: cell-based, human; settings: 6 subjects
Description: Medium in control wells contained 10% FBS.

[2] = acidic pH
[3] = test system: HCC1954 cells; settings: 10% plasma, 24 hours; 6 subjects; P=0.047
[4] = test system: MDA-MB-231 cells; settings: 10% plasma, 24 hours; 6 subjects; P=0.044

With “H-Trp-Arg-Tyr-Thr-Ala-Pro-Val-His-Leu-Gly-Asp-Gly-dAla-Lys-CHAla-Val-Ala-Ala-Trp-Thr-Leu-Lys-Ala-Ala-dAla-NH2 [P10s-PADRE]” as the substance, how does the “cytotoxicity of post-immune plasma compared to pre-immune plasma” value [1] read?
Its value is “higher in the post-immune plasma from 5 of the 6 subjects”.

And the aqueous solubility [2]?
The aqueous solubility was “good”.

And the toxicities (500 μg dose)?
Its toxicities is “no toxicities”.

And the side effects (Example 5 patient, 300 mcg SC)?
Its side effects is “Other than local reactions with indurations at the site of injections, the vaccine did not have any side effects”.

And the “dose-limiting toxicities (DLTs)” value (first four subjects, SC with MONTANIDE ISA 51 VG)?
Its value is “No dose-limiting toxicities”.

What about the dose-limiting toxicity (whole study, 300 and 500 μg/injection) of the same substance?
Its dose-limiting toxicity is “No dose-limiting toxicity”.

What about the safety and tolerability (whole study, six subjects) of the same substance?
The safety and tolerability was “safe and tolerable”.

And the “post-immune increase in cytotoxicity, average (standard deviation)” value [3]?
Its value is 26% (24%).

And the “post-immune increase in cytotoxicity, average (standard deviation)” value [4]?
The value was 30% (28%).
